Measurements: patent publication US6936585B2, “Corticotropin releasing factor 2 receptor agonists” (priority 2002, dated 2005)

Tests used:
[1] = target: T1, CRF2R (Homo sapiens, UniProt Q13324); test: CRF2R agonist activation (EC50 / Emax), called comparative CRF binding; type: cell-based; conditions: read-out: CRF2R Emax
T1 sequence (Q13324 1-411): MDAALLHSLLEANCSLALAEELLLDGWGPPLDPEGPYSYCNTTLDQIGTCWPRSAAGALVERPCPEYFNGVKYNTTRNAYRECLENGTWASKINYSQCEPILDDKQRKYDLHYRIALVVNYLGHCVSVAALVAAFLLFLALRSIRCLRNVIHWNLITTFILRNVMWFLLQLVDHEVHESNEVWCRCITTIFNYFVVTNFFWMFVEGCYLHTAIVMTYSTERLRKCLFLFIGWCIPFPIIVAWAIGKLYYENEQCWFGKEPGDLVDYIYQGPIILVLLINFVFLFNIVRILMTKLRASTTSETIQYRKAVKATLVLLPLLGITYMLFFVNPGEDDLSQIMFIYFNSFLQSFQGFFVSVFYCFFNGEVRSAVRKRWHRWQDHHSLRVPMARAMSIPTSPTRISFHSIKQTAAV
Outline: (§1)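 CRFR-expressing cells + peptide vs vehicle; read-out cAMP (lysate assay) or CRE-linked reporter expression (luciferase, CAT, fluorescent protein, alkaline phosphatase, etc.). Signal compared against vehicle-treated cells.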

[2] = target: T2, CRF1R (Homo sapiens, UniProt P34998); test: CRF1R agonist activation (EC50 / Emax), called comparative CRF binding; type: cell-based; conditions: read-out: CRF1R Emax
T2 sequence (P34998 24-415): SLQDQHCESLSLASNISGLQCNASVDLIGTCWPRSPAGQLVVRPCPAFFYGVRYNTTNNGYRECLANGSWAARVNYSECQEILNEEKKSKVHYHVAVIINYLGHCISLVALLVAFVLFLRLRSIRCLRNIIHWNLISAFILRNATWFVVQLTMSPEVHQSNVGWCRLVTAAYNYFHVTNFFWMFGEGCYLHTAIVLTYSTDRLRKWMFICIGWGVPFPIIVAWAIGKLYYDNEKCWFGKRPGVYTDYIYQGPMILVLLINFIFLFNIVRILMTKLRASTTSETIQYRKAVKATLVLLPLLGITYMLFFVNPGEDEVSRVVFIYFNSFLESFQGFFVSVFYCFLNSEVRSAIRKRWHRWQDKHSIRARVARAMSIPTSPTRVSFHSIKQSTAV
Outline: as §1

Row | Structure (SMILES) | Emax [1] | Emax [2]
1 | CC[C@H](C)[C@H](NC(=O)[C@@H](NC(=O)[C@H](CC(=O)O)NC(=O)[C@H](CC(C)C)NC(=O)[C@H](CC(C)C)NC(=O)[C@H](CC(C)C)NC(=O)[C@H](CCCNC(=N)N)NC(=O)[C@H](CC(N)=O)NC(=O)[C@H](CC(N)=O)NC(=O)[C@H](C)NC(=O)[C@H](C)NC(=O)[C@H](CCC(N)=O)NC(=O)[C@H](CCC(N)=O)NC(=O)[C@H](CCCCN)NC(=O)[C@H](CCC(=O)O)NC(=O)[C@H](CCCCN)NC(=O)[C@H](CCC(=O)O)NC(=O)[C@H](CCC(N)=O)NC(=O)[C@H](CCCCN)NC(=O)[C@H](CCC(=O)O)NC(=O)[C@@H](NC(=O)[C@H](CCC(=O)O)NC(=O)[C@@H](NC(=O)[C@H](CCSC)NC(=O)[C@H](CCCCN)NC(=O)[C@H](CCCNC(=N)N)NC(=O)[C@H](CC(C)C)NC(=O)[C@H](CC(C)C)NC(=O)[C@H](C)NC(=O)[C@H](C)NC(=O)[C@@H]1CCCN1C(=O)[C@H](CC(C)C)NC(=O)[C@H](CC(=O)O)NC(=O)[C@@H](NC(=O)[C@H](CO)NC(=O)[C@@H](NC(=O)[C@@H]1CCCN1C(=O)[C@@H]1CCCN1C(=O)CNC(=O)[C@@H]1CCC(=O)N1)[C@@H](C)CC)[C@@H](C)CC)[C@@H](C)CC)[C@@H](C)CC)[C@@H](C)O)C(N)=O [compound 303] | 100% | 100%
2 | CC[C@H](C)[C@H](NC(=O)[C@@H](NC(=O)[C@H](CC(=O)O)NC(=O)[C@H](CC(C)C)NC(=O)[C@H](CC(C)C)NC(=O)[C@H](CC(C)C)NC(=O)[C@H](CCCNC(=N)N)NC(=O)[C@H](CC(N)=O)NC(=O)[C@H](CC(N)=O)NC(=O)[C@H](C)NC(=O)[C@H](C)NC(=O)[C@H](CCC(N)=O)NC(=O)[C@H](CCC(N)=O)NC(=O)[C@H](CCCCN)NC(=O)[C@H](CCC(=O)O)NC(=O)[C@H](CCCCN)NC(=O)[C@H](CCC(=O)O)NC(=O)[C@H](CCC(N)=O)NC(=O)[C@H](CCCCN)NC(=O)[C@H](CCC(=O)O)NC(=O)[C@@H](NC(=O)[C@H](CCC(=O)O)NC(=O)[C@@H](NC(=O)[C@H](CCSC)NC(=O)[C@H](CCCCN)NC(=O)[C@H](CCCNC(=N)N)NC(=O)[C@H](CC(C)C)NC(=O)[C@H](CC(C)C)NC(=O)[C@H](CC(N)=O)NC(=O)[C@@H](NC(=O)[C@@H]1CCCN1C(=O)[C@H](CC(C)C)NC(=O)[C@H](CC(=O)O)NC(=O)[C@@H](NC(=O)[C@H](CO)NC(=O)[C@@H](NC(=O)[C@@H]1CCCN1C(=O)[C@@H]1CCCN1C(=O)CNC(=O)[C@@H]1CCC(=O)N1)[C@@H](C)CC)[C@@H](C)CC)[C@@H](C)O)[C@@H](C)CC)[C@@H](C)CC)[C@@H](C)O)C(N)=O [compound 59] | 27% | 10%
3 | CC[C@H](C)[C@H](NC(=O)[C@@H](NC(=O)[C@H](CC(=O)O)NC(=O)[C@H](CC(C)C)NC(=O)[C@H](CC(C)C)NC(=O)[C@H](CC(C)C)NC(=O)[C@H](CCCNC(=N)N)NC(=O)[C@H](CC(N)=O)NC(=O)[C@H](CC(N)=O)NC(=O)[C@H](C)NC(=O)[C@H](C)NC(=O)[C@H](CCC(N)=O)NC(=O)[C@H](CCC(N)=O)NC(=O)[C@H](CCCCN)NC(=O)[C@H](CCC(=O)O)NC(=O)[C@H](CCCCN)NC(=O)[C@H](CCC(=O)O)NC(=O)[C@H](CCC(N)=O)NC(=O)[C@H](CCCCN)NC(=O)[C@H](CCC(=O)O)NC(=O)[C@@H](NC(=O)[C@H](CCC(=O)O)NC(=O)[C@@H](NC(=O)[C@H](CCSC)NC(=O)[C@H](CCCCN)NC(=O)[C@H](CCCNC(=N)N)NC(=O)[C@H](CC(C)C)NC(=O)[C@H](CC(C)C)NC(=O)[C@H](CCC(=O)O)NC(=O)[C@H](CC(C)C)NC(=O)[C@@H]1CCCN1C(=O)[C@H](CC(C)C)NC(=O)[C@H](CC(=O)O)NC(=O)[C@@H](NC(=O)[C@H](CO)NC(=O)[C@@H](NC(=O)[C@@H]1CCCN1C(=O)[C@@H]1CCCN1C(=O)CNC(=O)[C@@H]1CCC(=O)N1)[C@@H](C)CC)[C@@H](C)CC)[C@@H](C)CC)[C@@H](C)CC)[C@@H](C)O)C(N)=O [compound 82] | 90% | 85%
4 | CC[C@H](C)[C@H](NC(=O)[C@@H](NC(=O)[C@H](CC(=O)O)NC(=O)[C@H](CC(C)C)NC(=O)[C@H](CC(C)C)NC(=O)[C@H](CC(C)C)NC(=O)[C@H](CCCNC(=N)N)NC(=O)[C@H](CC(N)=O)NC(=O)[C@H](CC(N)=O)NC(=O)[C@H](C)NC(=O)[C@H](C)NC(=O)[C@H](CCC(N)=O)NC(=O)[C@H](CCC(N)=O)NC(=O)[C@H](CCCCN)NC(=O)[C@H](CCC(=O)O)NC(=O)[C@H](CCCCN)NC(=O)[C@H](CCC(=O)O)NC(=O)[C@H](CCC(N)=O)NC(=O)[C@H](CCCCN)NC(=O)[C@H](CCC(=O)O)NC(=O)[C@@H](NC(=O)[C@H](CCC(=O)O)NC(=O)[C@@H](NC(=O)[C@H](CCSC)NC(=O)[C@H](CCCCN)NC(=O)[C@H](CCCNC(=N)N)NC(=O)[C@H](CC(C)C)NC(=O)[C@H](CC(C)C)NC(=O)[C@@H](NC(=O)[C@@H](NC(=O)[C@@H]1CCCN1C(=O)[C@H](CC(C)C)NC(=O)[C@H](CC(=O)O)NC(=O)[C@@H](NC(=O)[C@H](CO)NC(=O)[C@@H](NC(=O)[C@@H]1CCCN1C(=O)[C@@H]1CCCN1C(=O)CNC(=O)[C@@H]1CCC(=O)N1)[C@@H](C)CC)[C@@H](C)CC)[C@@H](C)O)[C@@H](C)O)[C@@H](C)CC)[C@@H](C)CC)[C@@H](C)O)C(N)=O [compound 42] | 88% | 10%
5 | CC[C@H](C)[C@H](NC(=O)[C@@H](NC(=O)[C@H](CC(=O)O)NC(=O)[C@H](CC(C)C)NC(=O)[C@H](CC(C)C)NC(=O)[C@H](CC(C)C)NC(=O)[C@H](CCCNC(=N)N)NC(=O)[C@H](CC(N)=O)NC(=O)[C@H](CC(N)=O)NC(=O)[C@H](C)NC(=O)[C@H](C)NC(=O)[C@H](CCC(N)=O)NC(=O)[C@H](CCC(N)=O)NC(=O)[C@H](CCCCN)NC(=O)[C@H](CCC(=O)O)NC(=O)[C@H](CCCCN)NC(=O)[C@H](CCC(=O)O)NC(=O)[C@H](CCC(N)=O)NC(=O)[C@H](CCCCN)NC(=O)[C@H](CCC(=O)O)NC(=O)[C@@H](NC(=O)[C@H](CCC(=O)O)NC(=O)[C@@H](NC(=O)[C@H](CCSC)NC(=O)[C@H](CCCCN)NC(=O)[C@H](CCCNC(=N)N)NC(=O)[C@H](CC(C)C)NC(=O)[C@H](CC(C)C)NC(=O)[C@H](Cc1ccc(O)cc1)NC(=O)[C@H](CO)NC(=O)[C@@H]1CCCN1C(=O)[C@H](CC(C)C)NC(=O)[C@H](CC(=O)O)NC(=O)[C@@H](NC(=O)[C@H](CO)NC(=O)[C@@H](NC(=O)[C@@H]1CCCN1C(=O)[C@@H]1CCCN1C(=O)CNC(=O)[C@@H]1CCC(=O)N1)[C@@H](C)CC)[C@@H](C)CC)[C@@H](C)CC)[C@@H](C)CC)[C@@H](C)O)C(N)=O [compound 56] | 87% | 14%
6 | CC[C@H](C)[C@H](NC(=O)[C@@H](NC(=O)[C@H](CC(=O)O)NC(=O)[C@H](CC(C)C)NC(=O)[C@H](CC(C)C)NC(=O)[C@H](CC(C)C)NC(=O)[C@H](CCCNC(=N)N)NC(=O)[C@H](CC(N)=O)NC(=O)[C@H](CC(N)=O)NC(=O)[C@H](C)NC(=O)[C@H](C)NC(=O)[C@H](CCC(N)=O)NC(=O)[C@H](CCC(N)=O)NC(=O)[C@H](CCCCN)NC(=O)[C@H](CCC(=O)O)NC(=O)[C@H](CCCCN)NC(=O)[C@H](CCC(=O)O)NC(=O)[C@H](CCC(N)=O)NC(=O)[C@H](CCCCN)NC(=O)[C@H](CCC(=O)O)NC(=O)[C@@H](NC(=O)[C@H](CCC(=O)O)NC(=O)[C@@H](NC(=O)[C@H](CCSC)NC(=O)[C@H](CCCCN)NC(=O)[C@H](CCCNC(=N)N)NC(=O)[C@H](CC(C)C)NC(=O)[C@H](CC(C)C)NC(=O)[C@H](CC(N)=O)NC(=O)[C@@H](NC(=O)[C@@H]1CCCN1C(=O)[C@H](CC(C)C)NC(=O)[C@H](CC(=O)O)NC(=O)[C@@H](NC(=O)[C@H](CO)NC(=O)[C@@H](NC(=O)[C@@H]1CCCN1C(=O)[C@@H]1CCCN1C(=O)CNC(=O)[C@@H]1CCC(=O)N1)[C@@H](C)CC)[C@@H](C)CC)[C@@H](C)CC)[C@@H](C)CC)[C@@H](C)CC)[C@@H](C)O)C(N)=O [compound 37] | 51% | 5%
7 | CC[C@H](C)[C@H](NC(=O)[C@@H](NC(=O)[C@H](C)NC(=O)[C@H](CC(C)C)NC(=O)[C@H](CC(C)C)NC(=O)[C@H](CC(C)C)NC(=O)[C@H](C)NC(=O)[C@H](CC(N)=O)NC(=O)[C@H](CC(N)=O)NC(=O)[C@H](C)NC(=O)[C@H](C)NC(=O)[C@H](CCC(N)=O)NC(=O)[C@H](CCC(N)=O)NC(=O)[C@H](CCCCN)NC(=O)[C@H](CCC(=O)O)NC(=O)[C@H](CCCCN)NC(=O)[C@H](CCC(=O)O)NC(=O)[C@H](CCC(N)=O)NC(=O)[C@H](CCCCN)NC(=O)[C@H](CCC(=O)O)NC(=O)[C@@H](NC(=O)[C@H](CCC(=O)O)NC(=O)[C@@H](NC(=O)[C@H](CCSC)NC(=O)[C@H](CCCCN)NC(=O)[C@H](CCCNC(=N)N)NC(=O)[C@H](CC(C)C)NC(=O)[C@H](CC(C)C)NC(=O)[C@H](Cc1ccc(O)cc1)NC(=O)[C@@H](NC(=O)[C@@H]1CCCN1C(=O)[C@H](CC(C)C)NC(=O)[C@H](CC(=O)O)NC(=O)[C@@H](NC(=O)[C@H](CO)NC(=O)[C@@H](NC(=O)[C@@H]1CCCN1C(=O)[C@@H]1CCCN1C(=O)CNC(=O)[C@@H]1CCC(=O)N1)[C@@H](C)CC)[C@@H](C)CC)[C@@H](C)O)[C@@H](C)CC)[C@@H](C)CC)[C@@H](C)O)C(N)=O [compound 233] | 95% | 11%
